# Molecular target: Aldo-keto reductase family 1 member B1 (Homo sapiens, UniProt P15121)
# Assay: Inhibition of recombinant AKR1B1 assessed as NADPH dependent reduction of DL-glyceraldehyde by fluorescence assay
structure (smiles),measurement,value
O=C(O)Cc1nn(Cc2nc3cc(C(F)(F)F)ccc3s2)c(=O)c2ccccc12 [ZOPOLRESTAT],IC50,0.027 µM
